Our source for the IC50 values is patent US8741934B2, “Inhibitors of ion channels” (Pfizer Limited, priority 2007, dated 2014).

By UniProt entry, the sequences of proteins in these tests, tags left out.
UniProt Q9NY46, whole entry: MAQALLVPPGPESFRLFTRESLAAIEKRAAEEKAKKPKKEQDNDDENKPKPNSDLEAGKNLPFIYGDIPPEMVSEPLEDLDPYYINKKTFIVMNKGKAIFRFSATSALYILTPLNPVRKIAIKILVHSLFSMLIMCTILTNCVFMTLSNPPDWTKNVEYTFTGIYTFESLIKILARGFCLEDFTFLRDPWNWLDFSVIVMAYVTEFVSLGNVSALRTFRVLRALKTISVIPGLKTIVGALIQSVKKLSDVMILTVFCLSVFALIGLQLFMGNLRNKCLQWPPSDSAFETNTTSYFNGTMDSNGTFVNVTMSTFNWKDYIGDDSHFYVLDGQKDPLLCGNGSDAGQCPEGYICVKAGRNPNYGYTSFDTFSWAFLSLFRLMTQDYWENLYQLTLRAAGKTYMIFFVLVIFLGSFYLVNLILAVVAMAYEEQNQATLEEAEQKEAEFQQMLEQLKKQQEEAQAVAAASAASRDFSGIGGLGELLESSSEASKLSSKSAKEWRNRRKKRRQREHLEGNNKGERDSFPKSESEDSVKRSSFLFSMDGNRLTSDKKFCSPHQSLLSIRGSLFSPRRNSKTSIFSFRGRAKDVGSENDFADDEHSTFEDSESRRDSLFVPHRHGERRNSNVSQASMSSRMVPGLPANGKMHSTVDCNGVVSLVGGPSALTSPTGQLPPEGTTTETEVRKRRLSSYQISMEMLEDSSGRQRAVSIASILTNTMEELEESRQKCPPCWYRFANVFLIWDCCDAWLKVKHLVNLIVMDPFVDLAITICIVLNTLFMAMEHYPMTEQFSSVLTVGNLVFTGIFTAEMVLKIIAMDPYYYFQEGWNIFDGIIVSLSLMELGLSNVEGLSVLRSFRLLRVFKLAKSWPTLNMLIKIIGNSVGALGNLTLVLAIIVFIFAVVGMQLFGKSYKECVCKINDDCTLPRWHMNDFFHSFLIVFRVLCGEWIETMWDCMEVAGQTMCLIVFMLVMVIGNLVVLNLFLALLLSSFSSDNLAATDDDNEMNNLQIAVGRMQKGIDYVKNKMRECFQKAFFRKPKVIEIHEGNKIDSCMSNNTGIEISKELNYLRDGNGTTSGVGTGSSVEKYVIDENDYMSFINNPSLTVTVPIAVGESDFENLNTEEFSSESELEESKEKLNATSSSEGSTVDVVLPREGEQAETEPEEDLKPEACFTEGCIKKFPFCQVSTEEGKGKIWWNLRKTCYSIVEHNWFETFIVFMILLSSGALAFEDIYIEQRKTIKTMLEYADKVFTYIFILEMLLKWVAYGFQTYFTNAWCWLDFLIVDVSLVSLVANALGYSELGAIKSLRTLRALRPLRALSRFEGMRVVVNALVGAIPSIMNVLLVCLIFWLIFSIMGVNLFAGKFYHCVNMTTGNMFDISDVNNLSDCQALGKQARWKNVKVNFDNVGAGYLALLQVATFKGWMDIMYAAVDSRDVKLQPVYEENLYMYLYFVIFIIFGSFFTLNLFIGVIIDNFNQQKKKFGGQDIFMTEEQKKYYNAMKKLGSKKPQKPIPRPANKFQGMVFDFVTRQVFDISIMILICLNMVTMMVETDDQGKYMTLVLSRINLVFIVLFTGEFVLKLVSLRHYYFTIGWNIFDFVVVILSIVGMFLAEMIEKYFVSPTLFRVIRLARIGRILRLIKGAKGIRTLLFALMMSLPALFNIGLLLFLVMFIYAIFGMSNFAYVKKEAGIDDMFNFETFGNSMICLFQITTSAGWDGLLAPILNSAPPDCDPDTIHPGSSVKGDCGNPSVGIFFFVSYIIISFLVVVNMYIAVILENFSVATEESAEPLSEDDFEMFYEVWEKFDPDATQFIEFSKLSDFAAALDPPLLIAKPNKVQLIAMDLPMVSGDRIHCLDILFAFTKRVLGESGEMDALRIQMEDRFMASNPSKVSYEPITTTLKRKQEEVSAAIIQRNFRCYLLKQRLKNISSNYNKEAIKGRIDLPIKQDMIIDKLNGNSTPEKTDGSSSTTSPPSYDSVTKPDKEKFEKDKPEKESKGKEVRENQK

The target of this assay is hSCN3A sodium channels (Homo sapiens, UniProt Q9NY46). Briefly: hSCN3A electrophysiology, whole-cell patch-clamp or PatchXpress 7000, estimated IC-50 (Table B). The conditions noted are these: read-out: SCN3A EIC-50, hSCN3A cells.

Regarding `O=C(NCc1ccc(C(F)(F)F)cc1)c1ccc(S(=O)(=O)Nc2nnc(C(F)(F)F)s2)cc1`, the IC50 was 15.1 µM.
